Series [1] can be described thus: Average particle size measurement with single nanoparticle size analyzer IG-1000 (induced diffraction grating method). In kind it is physicochemical. As to conditions: 25° C. The protocol: The particle size (average particle size) of the nanoparticles according to the invention is measured by, for example, an induced diffraction grating method. An induced diffraction grating method is a method of: (1) irradiating a 1 or 2 mg/mL aqueous solution of the block copolymer of the present invention or a composition including the block copolymer with laser light, thereby forming diffraction gratings by dielectrophoresis; (2) stopping an external force that causes dielectrophoresis, measuring the annihilation rate of the diffraction gratings caused by diffusion, and (3) applying the annihilation rate to the Stokes-Einstein relational equation to obtain the particle size. For example, the particle size may be measured with a single nanoparticle size measuring apparatus, IG-1000, manufactured by Shimadzu Corp.
Measurement of the average particle sizes of the block copolymers of Synthesis Examples and Examples and compositions including those block copolymers was carried out using a single nanoparticle size analyzer, IG-1000, manufactured by Shimadzu Corp. (measurement temperature: 25° C., light intensity at t=0: 100 to 200). Regarding the sample for measuring the average particle size, a solution produced using ultrapure water to a block copolymer concentration of 1 mg/mL or 2 mg/mL and filtered through a 0.45 μm membrane filter, was used.

The subject of series [2] is human pancreatic cancer BxPC-3 tumor. Conditions: BxPC-3 subcutaneous tumor, 5 mg/kg in terms of Nile Red derivative, single i.v., one hour after administration.
In series [3] the test system is kidney. Conditions: BxPC-3 tumor-bearing mice, 5 mg/kg in terms of Nile Red derivative, single i.v., one hour after administration.
Series [4] deals with human renal cancer RCC-01-JCK tumor. Conditions: RCC-01-JCK subcutaneous tumor, 5 mg/kg in terms of Nile Red derivative, single i.v., one hour after administration.
Series [5] concerns kidney. As to conditions: RCC-01-JCK tumor-bearing mice, 5 mg/kg in terms of Nile Red derivative, single i.v., one hour after administration.
The next series has as its system human glioma U87MG tumor. Conditions: U87MG subcutaneous tumor, 5 mg/kg in terms of Nile Red derivative, single i.v., one hour after administration.
The test system of series [6] is kidney. Conditions: U87MG tumor-bearing mice, 5 mg/kg in terms of Nile Red derivative, single i.v., one hour after administration.
The subject of series [7] is human pancreatic cancer BxPC3 tumor. Conditions: for fluorescence distribution in tumor: BxPC3 subcutaneous tumor, 5 mg/kg in terms of Nile Red derivative, single i.v., one hour after administration; for accumulation properties in tumor: conclusion from tumor fluorescence, Test Example 4.
Series [8] deals with kidney. As to conditions: BxPC3 tumor-bearing mice, 5 mg/kg in terms of Nile Red derivative, single i.v., one hour after administration.

Where two headings read alike, the source gives them in different places.

“4-Phenyl-1-Butanol-Bonded and Nile Red Derivative-Bonded Product of Polyethylene Glycol (2 kDa)-Polyglutamic Acid (7.9 Polymerization Units) Block Copolymer [Example 1]” displayed an average particle size in [1] (2 mg/mL in ultrapure water) of 18 nm. The “fluorescence distribution in tumor” value in series [2] is “penetrated into the entire tumor, and fluorescence signals were observed in a wider area, compared to Comparative Example 1”; in series [4] it was “penetrated into the entire tumor, and fluorescence signals were observed in a wider area, compared to Comparative Example 1”; in the series on human glioma U87MG tumor, “penetrated into the entire tumor, and fluorescence signals were observed in a wider area, compared to Comparative Example 1”. For the same substance, the “fluorescence distribution in kidney” value in the series with kidney [3] is “fluorescence was observed in the blood vessels and renal tubules”; in the series on kidney [5] it was “fluorescence was observed in the blood vessels and renal tubules”; with kidney [6] it was “fluorescence was observed in the blood vessels and renal tubules”.
On to “4-phenyl-1-Butanol-Bonded and Nile Red Derivative-Bonded Product of Polyethylene Glycol (12 kDa)-Polyglutamic Acid (22.0 Polymerization Units) Block Copolymer [Comparative Example 1, reference compound]”, for which the average particle size in [1] (2 mg/mL in ultrapure water) is listed as 36 nm. The “fluorescence distribution in kidney” value with kidney [3], in the series on kidney [5] and in the series on kidney [6] was “fluorescence was not recognized in areas other than in the blood vessels” in each case.
Turning to “Cabazitaxel (CBZ)-Bonded and Nile Red Derivative-Bonded Product of Polyethylene Glycol (12 kDa)-α,β-Polyaspartic Acid (23.8 Polymerization Units) Block Copolymer [Comparative Example 2]”, in [1] (1 mg/mL in ultrapure water), the average particle size came to 29 nm. Further, in series [7], the “fluorescence distribution in tumor” value is “fluorescence signals were observed in the outer periphery of tumors; however, tumor tissue penetrability was not confirmed” and the “accumulation properties in tumor” value is “exhibited lower accumulation properties in tumor compared to Example 2”. For the same substance, the “fluorescence distribution in kidney” value in the series on kidney [8] is “fluorescence was not recognized in areas other than in the blood vessels”.
“Cabazitaxel (CBZ)-Bonded, n-Butylamine-Bonded, and Nile Red Derivative-Bonded Product of Polyethylene Glycol (2 kDa)-α,β-Polyaspartic Acid (12.5 Polymerization Units) Block Copolymer [Example 2]” registered an average particle size in [1] (1 mg/mL in ultrapure water) of 14 nm. In [7], the “fluorescence distribution in tumor” value is “signals of fluorescence were observed in a wide area of tumor sections” and the “accumulation properties in tumor” value is “exhibited rapid tumor accumulation properties”. The “fluorescence distribution in kidney” value in the series on kidney [8] is “fluorescence was observed in the renal tubules”.
For “Nile Red Derivative-Bonded Product of Polyethylene Glycol (2 kDa)-α,β-Polyaspartic Acid (12.5 Polymerization Units) Block Copolymer [Comparative Example 3]”, in [7], the “fluorescence distribution in tumor” value was “fluorescence signals were observed in the outer periphery of tumors; however, tumor tissue penetrability was not confirmed” and the “accumulation properties in tumor” value is “exhibited low accumulation properties in tumor”. The “fluorescence distribution in kidney” value in the series with kidney [8] was “fluorescence was observed in the renal tubules”.

(Values after patent US10869937B2, “Polymer derivatives, and novel polymer derivative imaging probe using same” (Nippon Kayaku Kabushiki Kaisha, priority 2016, dated 2020).)
